Experimental data as given in the supplement of paper PMC12455559.

What was measured:
[1] = purified protein yield per well (BCA); higher = higher soluble expression
Procedure: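 Candidate PET hydrolases were expressed in E. coli C41(DE3) in 2 mL autoinduction cultures in 24-deep-well plates, Ni-bead purified and released by SUMO protease cleavage on an OT-2 robot. Yield per well was measured by BCA; values below 25 ug (0.1 mg/mL) are below the detection threshold. Melting temperature was measured by differential scanning fluorimetry with Sypro Orange, ramping from 25 C at 0.3 C/step.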

[2] = PET hydrolysis, aromatic products released after 48 h (umol product/mg enzyme); higher = more PET depolymerization activity
Procedure: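 HTP-purified, SUMO-cleaved, tagless PET hydrolase candidates (5 ug, 1.43 mg/g PET) were incubated 48 h without shaking with 3.5 mg amorphous PET film (aFilm) or crystalline PET powder (cryPow) in 0.5 mL buffer: NaCitrate pH 4.5/5.5, NaPhosphate pH 6.5/7.5, glycine pH 8.5. Incubation was at 40 or 60 C. Aromatic products (TPA, MHET, BHET) in the supernatant were quantified by UV absorbance at 260/280 nm relative to buffer blanks and expressed per mg enzyme. LCC-ICCG was the positive control on every plate.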

GSLGAMVDTLSGLSSEQGQSGDMTIEEDSATHIKFSKRDEDGKELAGATMELRDSSGKTISTWISDGQVKDFYLYPGKYTFVETAAPDGYEVATAITFTVNEQGQVTVNGKATKGDAHIDGSGASQTNPYARGPNPTAASLEASAGPFTVRSFTVSRPSGYGAGTVYYPTNAGGTVGAIAIVPGYTARQSSIKWWGPRLASHGFVVITIDTNSTFDYPSSRSSQQMAALRQVASLNGDSSSPIYGKVDTARMGVMGHSMGGGASLRSAANNPSLKAAIPQAPWDSQTNFSSVTVPTLIFACENDSIAPVNSHALPIYDSMSRNAKQFLEINGGSHSCANSGNSNQALIGKKGVAWMKRFMDNDTRYSTFACENPNSTAVSDFRTANCSASGGSGENLYFQGAMVDTLSGLSSEQGQSGDMTIEEDSATHIKFSKRDEDGKELAGATMELRDSSGKTISTWISDGQVKDFYLYPGKYTFVETAAPDGYEVATAITFTVNEQGQVTVNGKATKGDAHID [TEP080]
purified protein yield per well [1]: 263 µg | PET hydrolysis ([2]; substrate: aFilm, 40 °C, pH 4.5): < 3 | PET hydrolysis ([2]; substrate: aFilm, 40 °C, pH 5.5): < 3 | PET hydrolysis ([2]; substrate: aFilm, 40 °C, pH 6.5): 5 ± 1.4 | PET hydrolysis ([2]; substrate: aFilm, 40 °C, pH 7.5): 13.5 ± 3.5 | PET hydrolysis ([2]; substrate: aFilm, 60 °C, pH 4.5): < 3 | PET hydrolysis ([2]; substrate: aFilm, 60 °C, pH 5.5): < 3 | PET hydrolysis ([2]; substrate: aFilm, 60 °C, pH 6.5): 27.5 ± 0.71 | PET hydrolysis ([2]; substrate: aFilm, 60 °C, pH 7.5): 62 ± 5.7 | PET hydrolysis ([2]; substrate: cryPow, 40 °C, pH 4.5): < 3 | PET hydrolysis ([2]; substrate: cryPow, 40 °C, pH 5.5): 4 | PET hydrolysis ([2]; substrate: cryPow, 40 °C, pH 6.5): 21 ± 4.2 | PET hydrolysis ([2]; substrate: cryPow, 40 °C, pH 7.5): 33.5 ± 3.5 | PET hydrolysis ([2]; substrate: cryPow, 60 °C, pH 4.5): < 3 | PET hydrolysis ([2]; substrate: cryPow, 60 °C, pH 5.5): 8 ± 2.8 | PET hydrolysis ([2]; substrate: cryPow, 60 °C, pH 6.5): 29 ± 4.2 | PET hydrolysis ([2]; substrate: cryPow, 60 °C, pH 7.5): 41.5 ± 7.8

± gives the standard deviation of the averaged measurements.
